Assay results: patent US4022891A (priority 1974, dated 1977)

What was measured:
bone absorption = assay: Bone absorption effect: increase in serum 45Ca radioactivity in 45Ca-labelled rats, continuous oral dosing (Example 31, FIG. 6); format: in vivo, Male wistar rats; details: on the eighth day
Description: Male wistar rats (each with a body weight of about 150 g) were subcutaneously administered with an aqueous solution of ^45 CaCl2 in a dose of 50 μCi per rat, and kept for 6 weeks. ^45 Ca so administered was rapidly absorbed, and a greater portion of it gathered at the bones in several hours. Three weeks later, the ^45 Ca level in blood became constant, and only the bones were in the specifically labelled state. This was confirmed by a macroautoradiographic analysis of the whole body. […] Blood was taken out with the passage of time, and the serum radioactivity level was measured by the method described in Example 29 (a). An increase in the serum radioactivity level was made an index of the effect of bone absorption. The control group was administered with corn oil alone. The number of rats tested was 4 in each group. In this figure, the symbol * indicates a significant difference in serum radioactivity level from the control.

Mouse = details: from Table 6; in words
Description: The toxicity of each of the above two compounds was tested by a well known method.

Structure (SMILES): C=C1/C(=C\C=C2/CCC[C@]3(C)[C@@H]([C@H](C)CCC(O)C(C)C)CC[C@@H]23)C[C@@H](O)C[C@@H]1O (stereo partly drawn) [1α,24-DHCC, 1α,24-dihydroxycholecalciferol]
- degree of increase of bone absorption relative to 1α-HCC (bone absorption): about 1/3
- toxicity relative to 1α-HCC (Mouse): one-tenth or less of that of 1α-HCC
